Test: THP cleavage of SS linker / 3′ blocking group on extended primer (MALDI-TOF MS)
Type: physicochemical
Protocol: Tris(hydroxypropyl)phosphine (THP) (1 μL, 1 mM) was added to the azo cleaved extended primer (9 μL, 15 μM) (E8TT+3′-O-t-butyl-SS-dTMP-PEG4-aniline, 6009.44 Da). […] After the spin column-based nucleic acid purification (ZymoPURE Oligo Clean & Concentrator), the product was confirmed by MALDI-TOF MS: 5881.4 Da (calc'd: 5874.9 Da). […]

- cleavage of SS linker on extended primer: complete cleavage
Substance: ddGTP-7-SS-Cy5

Reference: patent US12188086B2, “Nucleotide analogues and use thereof for nucleic acid sequencing and analysis preliminary class” (The Trustees of Columbia University in the City of New York, priority 2018, dated 2025)
